Tests used:
[1] = biological target: Acetylcholinesterase (Homo sapiens) (UniProt P22303); assay: Maximum attainable percent reactivation obtained for a range of concentrations of 10M*10e4 HOX and 2.89M*10e4OX
[2] = biological target: Acetylcholinesterase (Homo sapiens) (UniProt P22303); assay: Maximum attainable percent reactivation obtained for a range of concentrations of 0.160 M *10e4 HOX and 0.0463M*10e4OX
[3] = biological target: Acetylcholinesterase (Homo sapiens) (UniProt P22303); assay: Maximum attainable percent reactivation obtained for a range of concentrations of 0.0300 M *10e4 HOX and 0.00870 M*10e4OX
[4] = biological target: Acetylcholinesterase (Homo sapiens) (UniProt P22303); assay: Pseudo first order observed rate constants for reactivation of acetylcholinesterase at 010 M *10e4 HOX and 2.89M*10e4OX; Kobs (min-1 X 10e3)
[5] = biological target: Acetylcholinesterase (Homo sapiens) (UniProt P22303); assay: Kr for reactivation of acetylcholinesterase at concentration of 2M*10e4 [HOX] and 10 Me-1*10e-3 [OX]e-1 was determined; Expressed as kr, M*10e4
[6] = biological target: Acetylcholinesterase (Homo sapiens) (UniProt P22303); assay: Pseudo first order observed rate constants for reactivation of acetylcholinesterase at 0.160 M *10e4 HOX and 0.0463M*10e4OX; Kobs (min-1 X 10e3)
[7] = biological target: Acetylcholinesterase (Homo sapiens) (UniProt P22303); assay: Pseudo first order observed rate constants for reactivation of acetylcholinesterase at 0.200 M*10e4 HOX and 0.0571 M*10e4OX; Kobs (min-1 X 10e3)
[8] = biological target: Acetylcholinesterase (Homo sapiens) (UniProt P22303); assay: Maximum attainable percent reactivation obtained for a range of concentrations of 0.200 M*10e4 HOX and 0.0571 M*10e4OX; No affinity point measured
[9] = biological target: Acetylcholinesterase (Homo sapiens) (UniProt P22303); assay: ka for reactivation of acetylcholinesterase at concentration of 2M*10e4 [HOX] and 10 Me-1*10e-3 [OX]e-1 was determined; Expressed as ka, 1/min 1*10e3
[10] = biological target: Acetylcholinesterase (Homo sapiens) (UniProt P22303); assay: Ratio of [EOP'']infinity to that of [EOH]infinity for reactivation of acetylcholinesterase at concentration of 10M*10e4 [HOX] and 3.50 Me-1*10e-3 [OX]e-1; Expressed as [EOP'']infinity/[EOH]infinity
[11] = biological target: Acetylcholinesterase (Homo sapiens) (UniProt P22303); assay: Ratio of [EOP'']infinity to that of [EOH]infinity for reactivation of acetylcholinesterase at concentration of 0.100 M *10e4 [HOX] and 346Me-1*10e-3 [OX]e-1; Expressed as [EOP'']infinity/[EOH]infinity
[12] = biological target: Acetylcholinesterase (Homo sapiens) (UniProt P22303); assay: Ratio of [EOP'']infinity to that of [EOH]infinity for reactivation of acetylcholinesterase at concentration of 0.160 M *10e4 [HOX] and 216Me-1*10e-3 [OX]e-1; Expressed as [EOP'']infinity/[EOH]infinity
[13] = biological target: Acetylcholinesterase (Homo sapiens) (UniProt P22303); assay: Maximum attainable percent reactivation obtained for a range of concentrations of 10M*10e4 HOX and 3.76M*10e4OX
[14] = biological target: Acetylcholinesterase (Homo sapiens) (UniProt P22303); assay: Pseudo first order observed rate constants for reactivation of acetylcholinesterase at 7M*10e4 HOX and 2.63M*10e4OX; Kobs (min-1 X 10e3)
[15] = biological target: Acetylcholinesterase (Homo sapiens) (UniProt P22303); assay: Pseudo first order observed rate constants for reactivation of acetylcholinesterase at 20 M*10e4 HOX and 7.52M*10e4OX; Kobs (min-1 X 10e3)
[16] = biological target: Acetylcholinesterase (Homo sapiens) (UniProt P22303); assay: 1/kmax for reactivation of acetylcholinesterase at concentration of 2M*10e4 [HOX] and 13.3Me-1*10e-3 [OX]e-1 was determined; Expressed as 1/kmax, min
[17] = biological target: Acetylcholinesterase (Homo sapiens) (UniProt P22303); assay: keff for reactivation of acetylcholinesterase at concentration of 2M*10e4 [HOX] and 13.3Me-1*10e-3 [OX]e-1 was determined; Expressed as keff, 1/M 1/min
[18] = biological target: Acetylcholinesterase (Homo sapiens) (UniProt P22303); assay: Kinetic constant was determined for reactivation of acetylcholinesterase at concentration of 4M*10e4 [HOX] and 6.65Me-1*10e-3 [OX]e-1; (kobsd-ka)e-1, min
[19] = biological target: Acetylcholinesterase (Homo sapiens) (UniProt P22303); assay: Kinetic constant was determined for reactivation of acetylcholinesterase at concentration of 10M*10e4 [HOX] and 2.66Me-1*10e-3 [OX]e-1; (kobsd-ka)e-1, min
[20] = biological target: Acetylcholinesterase (Homo sapiens) (UniProt P22303); assay: Kinetic constant was determined for reactivation of acetylcholinesterase at concentration of 20 M*10e4 [HOX] and 1.33Me-1*10e-3 [OX]e-1; (kobsd-ka)e-1, min
[21] = biological target: Acetylcholinesterase (Homo sapiens) (UniProt P22303); assay: Ratio of Kr/kmax for reactivation of acetylcholinesterase at concentration of 2M*10e4 [HOX] and 13.3Me-1*10e-3 [OX]e-1 was determined; Expressed as Kr/kmax, M-min*10e2
[22] = biological target: Acetylcholinesterase (Homo sapiens) (UniProt P22303); assay: Ratio of [EOP'']infinity to that of [EOH]infinity for reactivation of acetylcholinesterase at concentration of 6M*10e4 [HOX] and 4.42Me-1*10e-3 [OX]e-1; Expressed as [EOP'']infinity/[EOH]infinity
[23] = biological target: Acetylcholinesterase (Homo sapiens) (UniProt P22303); assay: Ratio of [EOP'']infinity to that of [EOH]infinity for reactivation of acetylcholinesterase at concentration of 12M*10e4 [HOX] and 2.20 Me-1*10e-3 [OX]e-1; Expressed as [EOP'']infinity/[EOH]infinity

By UniProt entry, the sequences of proteins in these tests, tags left out. Where a name states a change or a piece, a line headed by the entry shows the natural chain unless it says otherwise.
UniProt P22303: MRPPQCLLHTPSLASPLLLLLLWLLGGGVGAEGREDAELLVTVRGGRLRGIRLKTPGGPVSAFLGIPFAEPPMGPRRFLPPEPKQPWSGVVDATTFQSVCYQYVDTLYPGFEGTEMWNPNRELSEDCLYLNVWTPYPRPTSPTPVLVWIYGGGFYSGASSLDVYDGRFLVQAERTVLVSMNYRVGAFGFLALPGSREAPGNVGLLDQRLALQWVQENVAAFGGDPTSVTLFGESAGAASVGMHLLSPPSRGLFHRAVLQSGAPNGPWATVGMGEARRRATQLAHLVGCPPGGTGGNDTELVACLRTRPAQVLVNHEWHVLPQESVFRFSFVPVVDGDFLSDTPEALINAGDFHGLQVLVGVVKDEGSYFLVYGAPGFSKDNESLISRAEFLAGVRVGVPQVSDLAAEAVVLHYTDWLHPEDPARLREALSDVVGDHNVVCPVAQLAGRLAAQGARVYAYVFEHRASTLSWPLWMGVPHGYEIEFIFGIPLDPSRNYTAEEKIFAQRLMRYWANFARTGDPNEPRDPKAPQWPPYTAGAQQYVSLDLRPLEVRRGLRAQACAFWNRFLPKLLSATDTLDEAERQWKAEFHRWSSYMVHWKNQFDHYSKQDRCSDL

SMILES: C[n+]1ccccc1C=NO
- Reactivation [1]: 4.49%
- Reactivation [2]: 4.42%
- Reactivation [3]: 3.93%
- k obs [4]: 2090 s⁻¹
- Kr [5]: 1100 M
- k obs [6]: 337 s⁻¹
- k obs [7]: 498 s⁻¹
- Reactivation [8]: No affinity point measured
- ka [9]: 6700 min⁻¹
- [EOP']infinity/[EOH]infinity [10]: 0.122
- [EOP']infinity/[EOH]infinity [11]: n
- [EOP']infinity/[EOH]infinity [12]: 0.203

SMILES: CCN(CC)CCS/C(=N\O)C(=O)c1ccc(OC)cc1
- Reactivation [13]: 4.05%
- k obs [14]: 119 s⁻¹
- k obs [15]: 0.128 s⁻¹
- 1/kmax [16]: 106 min
- k eff [17]: 11 M⁻¹ min⁻¹
- 1/kobsd-ka [18]: 353 min
- 1/kobsd-ka [19]: 176 min
- 1/kobsd-ka [20]: 164 min
- Kr/kmax [21]: 330 M-min
- [EOP']infinity/[EOH]infinity [22]: 1.26
- [EOP']infinity/[EOH]infinity [23]: 0.47

— ChEMBL document CHEMBL1121722, “Nonquaternary cholinesterase reactivators. Dialkylaminoalkyl thioesters of alpha-ketothiohydroximic acids as reactivators of diisopropyl phosphorofluoridate inhibited acetylcholinesterase” (1981)
